The chains behind the UniProt entries cited, without tags or fusion partners.
UniProt P31645, whole entry: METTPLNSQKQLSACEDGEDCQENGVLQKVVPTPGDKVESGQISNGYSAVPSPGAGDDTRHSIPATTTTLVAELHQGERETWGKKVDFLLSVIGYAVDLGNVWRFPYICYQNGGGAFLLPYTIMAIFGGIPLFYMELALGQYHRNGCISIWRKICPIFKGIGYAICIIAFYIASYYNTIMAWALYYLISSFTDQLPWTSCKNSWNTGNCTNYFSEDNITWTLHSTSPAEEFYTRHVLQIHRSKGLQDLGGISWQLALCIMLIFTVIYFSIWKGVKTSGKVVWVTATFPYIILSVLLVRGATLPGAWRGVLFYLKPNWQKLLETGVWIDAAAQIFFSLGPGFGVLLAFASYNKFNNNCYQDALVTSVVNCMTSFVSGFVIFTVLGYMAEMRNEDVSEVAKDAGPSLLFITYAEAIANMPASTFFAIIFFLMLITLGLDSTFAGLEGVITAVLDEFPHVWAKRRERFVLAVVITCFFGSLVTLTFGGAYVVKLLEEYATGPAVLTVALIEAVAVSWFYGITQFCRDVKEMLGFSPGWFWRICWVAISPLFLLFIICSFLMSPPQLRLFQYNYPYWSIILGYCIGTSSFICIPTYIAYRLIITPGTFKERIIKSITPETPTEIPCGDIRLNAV
UniProt P23975, whole entry: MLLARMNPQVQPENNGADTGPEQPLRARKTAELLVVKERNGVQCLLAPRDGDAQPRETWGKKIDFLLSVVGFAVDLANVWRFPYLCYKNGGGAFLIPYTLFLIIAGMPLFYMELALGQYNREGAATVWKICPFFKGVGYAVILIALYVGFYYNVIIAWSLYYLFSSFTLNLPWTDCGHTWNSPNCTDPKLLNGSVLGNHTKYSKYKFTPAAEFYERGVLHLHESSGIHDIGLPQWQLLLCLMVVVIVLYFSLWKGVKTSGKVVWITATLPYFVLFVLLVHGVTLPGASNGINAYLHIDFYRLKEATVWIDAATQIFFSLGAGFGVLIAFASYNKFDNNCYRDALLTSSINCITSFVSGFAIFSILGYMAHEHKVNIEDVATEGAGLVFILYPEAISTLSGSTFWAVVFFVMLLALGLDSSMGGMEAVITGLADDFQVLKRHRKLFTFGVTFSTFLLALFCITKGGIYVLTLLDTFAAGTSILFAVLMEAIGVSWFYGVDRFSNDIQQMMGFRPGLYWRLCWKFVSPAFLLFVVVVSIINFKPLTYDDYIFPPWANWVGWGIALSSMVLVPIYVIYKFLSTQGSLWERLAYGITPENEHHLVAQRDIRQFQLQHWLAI
UniProt Q01959, whole entry: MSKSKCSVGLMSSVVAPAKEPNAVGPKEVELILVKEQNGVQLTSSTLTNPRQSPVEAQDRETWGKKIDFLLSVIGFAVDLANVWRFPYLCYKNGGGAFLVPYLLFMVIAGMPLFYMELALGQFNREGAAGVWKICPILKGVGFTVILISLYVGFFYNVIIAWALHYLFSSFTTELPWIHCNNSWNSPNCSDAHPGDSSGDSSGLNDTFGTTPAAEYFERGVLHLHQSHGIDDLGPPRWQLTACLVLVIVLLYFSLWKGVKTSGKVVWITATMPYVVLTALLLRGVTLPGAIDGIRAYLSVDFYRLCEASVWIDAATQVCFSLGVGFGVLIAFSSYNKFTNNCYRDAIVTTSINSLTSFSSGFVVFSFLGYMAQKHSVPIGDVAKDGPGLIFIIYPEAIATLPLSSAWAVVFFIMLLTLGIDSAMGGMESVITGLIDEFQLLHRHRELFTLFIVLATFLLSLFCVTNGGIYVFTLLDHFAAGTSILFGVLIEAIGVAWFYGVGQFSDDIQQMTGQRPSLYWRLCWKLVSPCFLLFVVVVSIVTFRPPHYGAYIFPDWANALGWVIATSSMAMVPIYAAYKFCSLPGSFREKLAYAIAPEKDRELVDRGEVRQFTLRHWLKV

In patent US7294637B2 (Sepracor, Inc., priority 2000, dated 2007):

Legend:
serotonin transporter [1] = molecular target: T1, serotonin transporter (Homo sapiens, UniProt P31645); test: 5-HT uptake: displacement of serotonin ligands in vitro (methods of Gu et al.); format: binding; conditions: read-out: 5-HT Uptake, Uptake Profile (IC50)
[2] = molecular target: T2, norepinephrine transporter (Homo sapiens, UniProt P23975); test: NE uptake: displacement of norephinephrine ligands in vitro (methods of Galli et al.); format: binding; conditions: read-out: NE Uptake, Uptake Profile (IC50)
dopamine transporter = dopamine transporter (Homo sapiens, UniProt Q01959); test: DA uptake: displacement of dopamine ligands in vitro (methods of Gu et al.); conditions: read-out: DA Uptake, Uptake Profile (IC50)
serotonin transporter [3] = molecular target: T1, serotonin transporter; test: Functional activity, serotonin uptake inhibition in human HEK-293 cell lines; format: cell-based; conditions: read-out: 5-HT Uptake, Functional Assays (antagonism, EC50)
[4] = molecular target: T2, norepinephrine transporter; test: Functional activity, norephinephrine uptake inhibition in MDCK cell lines; format: cell-based; conditions: read-out: NE Uptake, Functional Assays (antagonism, EC50)
DAT = DAT (Homo sapiens, UniProt Q01959); conditions: read-out: DA Uptake, Functional Assays (antagonism, EC50); hDAT cell line

Question: Which results are given for OCC1CCCCN(CC2(c3ccc(Cl)cc3)CCC2)C1 (stereo not drawn)?
Answer: IC50 (serotonin transporter [1]): > 1000 nM; IC50 [2]: > 1000 nM; IC50 (dopamine transporter): < 1000 nM

Question: What does the source list for FC(F)(F)c1ccc(OCCC2CCCN(CC3(c4ccc(Cl)cc4)CCC3)C2)cc1 (single isomer, unassigned) [119]?
Answer: IC50 (serotonin transporter [1]): > 1000 nM; IC50 [2]: < 100 nM; IC50 (dopamine transporter): < 10 nM; EC50 (serotonin transporter [3]): > 1000 nM; EC50 [4]: < 100 nM; EC50 (DAT): < 10 nM

Question: For FC(F)(F)c1ccc(OCCC2CCCN(CC3(c4ccc(Cl)cc4)CCC3)C2)cc1 (single isomer, unassigned) [118], which IC50 (serotonin transporter [1]) is on record?
Answer: The IC50 was greater than 1000 nM.

Question: What about the IC50 [2] of the same molecule?
Answer: The IC50 was less than 1000 nM.

Question: What about the IC50 (dopamine transporter) of the same molecule?
Answer: The IC50 was less than 10 nM.

Question: And the EC50 (serotonin transporter [3])?
Answer: The EC50 was greater than 1000 nM.

Question: And the EC50 [4]?
Answer: Its EC50 is less than 100 nM.

Question: What about the EC50 (DAT) of the same molecule?
Answer: Its EC50 is less than 10 nM.
